# This is a selection; strong and weak results do not stand in their true shares. Activity calls are given as the source filed them.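 How the source made its calls: active means mean inhibition above a set limit taken from the earlier primary screen (cut at about 13% in these data); inactive means the rest.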
# Assay: reduced OD of T4-infected AddAB+ E. coli – absorbance, E. coli V3065, T4 phage, triplicate, AddAB inhibitor project, confirmation (AID 488942);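 further: higher means less bacterial growth since AddAB block lets phage replicate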
# Conditions: E. coli V3065 expressing H. pylori AddAB, at 11.9 µM, active compounds read high, T4 phage with gene 2 nonsense mutations
compound,measurement,value
COc1ccc(C[C@H](C)NC[C@@H](O)c2ccc(O)c(NC=O)c2)cc1,inhibition,active: 98.8%
